# Values joined by “and” are separate entries in the source; they are usually repeats but may differ in a detail not shown here. Identical values can stand only once. Like-named read-outs stand apart in the source and are kept apart here.
# Chains of the proteins cited; added tags and fusions are not shown. Lines headed by an entry give the natural chain unless they say otherwise; changes in a name come on top. Residues count along the entry.
# UniProt P03887, whole entry: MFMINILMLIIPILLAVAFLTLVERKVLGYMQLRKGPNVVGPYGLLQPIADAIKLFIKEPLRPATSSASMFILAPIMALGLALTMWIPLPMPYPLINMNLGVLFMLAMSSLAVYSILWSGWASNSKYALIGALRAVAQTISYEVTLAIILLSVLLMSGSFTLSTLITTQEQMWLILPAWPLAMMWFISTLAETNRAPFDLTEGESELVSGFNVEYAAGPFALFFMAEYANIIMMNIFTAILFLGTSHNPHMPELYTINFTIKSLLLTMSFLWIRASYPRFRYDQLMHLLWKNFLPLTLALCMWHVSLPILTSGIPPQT
# UniProt P17694, 34-463: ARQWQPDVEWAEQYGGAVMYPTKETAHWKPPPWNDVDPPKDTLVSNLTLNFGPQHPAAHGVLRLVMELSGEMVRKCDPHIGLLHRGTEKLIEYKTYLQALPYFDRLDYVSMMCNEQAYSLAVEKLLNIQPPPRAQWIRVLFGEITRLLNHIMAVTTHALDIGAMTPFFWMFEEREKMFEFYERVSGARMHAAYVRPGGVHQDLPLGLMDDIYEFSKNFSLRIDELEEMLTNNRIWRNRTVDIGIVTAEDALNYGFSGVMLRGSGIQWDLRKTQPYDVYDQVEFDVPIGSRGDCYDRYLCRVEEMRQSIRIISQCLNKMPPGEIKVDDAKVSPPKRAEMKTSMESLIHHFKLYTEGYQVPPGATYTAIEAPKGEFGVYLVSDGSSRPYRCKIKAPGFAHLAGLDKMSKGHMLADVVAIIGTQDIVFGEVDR
# UniProt P42026, 38-216: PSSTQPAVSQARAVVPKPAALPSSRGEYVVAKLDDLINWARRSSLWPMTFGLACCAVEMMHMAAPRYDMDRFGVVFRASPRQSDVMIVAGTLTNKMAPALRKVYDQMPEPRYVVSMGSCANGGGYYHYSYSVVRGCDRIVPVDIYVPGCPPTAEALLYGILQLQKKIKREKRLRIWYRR
# UniProt A4UAP3: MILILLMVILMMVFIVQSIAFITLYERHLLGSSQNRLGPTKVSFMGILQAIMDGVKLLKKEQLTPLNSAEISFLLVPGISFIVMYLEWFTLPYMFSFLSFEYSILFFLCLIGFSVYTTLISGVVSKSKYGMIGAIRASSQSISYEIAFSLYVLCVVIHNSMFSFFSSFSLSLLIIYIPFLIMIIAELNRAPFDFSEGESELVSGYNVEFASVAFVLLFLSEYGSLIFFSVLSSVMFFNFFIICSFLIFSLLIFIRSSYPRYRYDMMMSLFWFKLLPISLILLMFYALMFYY
# Key:
# [1] = molecular target: B. taurus (heart) complex I (Bos taurus, UniProt P03887+P17694+P42026); type: biochemical; conditions: for percent (%) in vitro complex I activity relative to solvent control / in vitro complex I activity relative to solvent control: B. taurus (heart) mitochondria, single replicate
# C. briggsae complex I = molecular target: T1, C. briggsae complex I (Caenorhabditis briggsae, UniProt A8X476+A8XFG2+Q8HEC4); experiment: In vitro complex I activity assay, C. briggsae mitochondria; type: biochemical; conditions: for in vitro complex I activity relative to solvent control: single replicate
# T1 sequence (A8X476 31-482): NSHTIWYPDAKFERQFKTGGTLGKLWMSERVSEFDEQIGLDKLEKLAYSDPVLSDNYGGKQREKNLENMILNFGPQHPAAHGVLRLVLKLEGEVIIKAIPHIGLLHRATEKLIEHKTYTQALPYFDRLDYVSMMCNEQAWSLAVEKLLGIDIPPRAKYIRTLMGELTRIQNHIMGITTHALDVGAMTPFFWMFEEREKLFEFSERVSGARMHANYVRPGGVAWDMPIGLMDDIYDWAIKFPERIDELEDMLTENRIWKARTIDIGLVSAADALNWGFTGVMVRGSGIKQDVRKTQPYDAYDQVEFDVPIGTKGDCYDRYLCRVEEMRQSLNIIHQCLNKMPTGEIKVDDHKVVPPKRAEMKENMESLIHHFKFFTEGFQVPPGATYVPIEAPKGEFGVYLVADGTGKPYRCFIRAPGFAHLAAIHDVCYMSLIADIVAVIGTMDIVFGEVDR
# T1 sequence (A8XFG2 17-199): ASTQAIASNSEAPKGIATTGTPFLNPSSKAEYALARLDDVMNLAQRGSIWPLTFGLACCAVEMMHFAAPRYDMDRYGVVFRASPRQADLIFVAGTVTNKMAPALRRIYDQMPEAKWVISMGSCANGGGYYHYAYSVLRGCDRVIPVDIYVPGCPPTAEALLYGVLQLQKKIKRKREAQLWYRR
# T1 sequence (Q8HEC4 1-291): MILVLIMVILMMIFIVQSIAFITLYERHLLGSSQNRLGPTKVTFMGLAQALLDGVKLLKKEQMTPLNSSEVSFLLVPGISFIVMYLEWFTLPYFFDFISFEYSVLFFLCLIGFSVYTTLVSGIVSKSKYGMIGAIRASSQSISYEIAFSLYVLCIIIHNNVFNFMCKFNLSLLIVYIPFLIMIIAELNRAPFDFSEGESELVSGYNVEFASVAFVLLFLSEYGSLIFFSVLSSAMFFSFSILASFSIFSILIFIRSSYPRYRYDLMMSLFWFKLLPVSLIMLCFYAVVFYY
# P. pacificus complex I = P. pacificus complex I (Pristionchus pacificus, UniProt A0A454XZ18+A0A8R1Z3U8+A4UAP3); experiment: In vitro complex I activity assay, P. pacificus mitochondria; type: biochemical; conditions: single replicate
# L1 wild-type C. elegans = conditions: […]; for KCN survival assay value relative to DMSO control, Mean: mean of replicates
smiles,measurement,setting,value
CC(C)Cc1ccc(C(C)c2nc3ccccc3n2C)cc1 (stereo not shown) [NPD8790],percent (%) in vitro complex I activity relative to solvent control,[1]; 3 µM,105.743% and 114.475% and 92.946% and 103.733%
same,percent (%) in vitro complex I activity relative to solvent control,[1]; 7.5 µM,102.567% and 109.904% and 86.068% and 95.145%
same,percent (%) in vitro complex I activity relative to solvent control,[1]; 15 µM,82.876% and 90.607% and 69.676% and 74.384%
same,percent (%) in vitro complex I activity relative to solvent control,[1]; 37.5 µM,49.756% and 32.716% and 30.663%
same,percent (%) in vitro complex I activity relative to solvent control,[1]; 75 µM,6.165% and 16.790% and 16.865% and 14.475%
same,in vitro complex I activity relative to solvent control,[1]; 0.06 µM,101.538% and 112.181% and 91.251% and 105.094%
same,in vitro complex I activity relative to solvent control,[1]; 0.13 µM,111.398% and 110.709% and 87.488% and 92.420%
same,in vitro complex I activity relative to solvent control,[1]; 0.313 µM,118.464% and 105.228% and 106.985%
same,in vitro complex I activity relative to solvent control,[1]; 0.625 µM,106.273% and 97.568% and 112.424%
same,in vitro complex I activity relative to solvent control,[1]; 1.5 µM,108.615% and 114.555% and 94.027% and 109.488%
same,in vitro complex I activity relative to solvent control,[1]; 3 µM,105.743% and 114.475% and 92.946% and 103.733%
same,in vitro complex I activity relative to solvent control,[1]; 7.5 µM,102.567% and 109.904% and 86.068% and 95.145%
same,in vitro complex I activity relative to solvent control,[1]; 15 µM,82.876% and 90.607% and 69.676% and 74.384%
same,in vitro complex I activity relative to solvent control,[1]; 37.5 µM,49.756% and 32.716% and 30.663%
same,in vitro complex I activity relative to solvent control,[1]; 75 µM,6.165% and 16.790% and 16.865% and 14.475%
same,"Complex I activity, dose-response data","[1]; B. taurus, dose 0.025 µM, individual replicates (Rep)",115.572
same,B. taurus: C. elegans IC50 Fold Change (Complex I IC50 ~Fold Change),[1]; heart mitochondria,11.6 and > 10 and 11.56
same,Complex I IC50 ~Fold Change,[1]; heart mitochondria,11.56
same,IC50 Fold change,[1]; heart mitochondria,11.56
same,in vitro complex I activity relative to solvent control,C. briggsae complex I; 0.0001 µM,95.759% and 91.268%
same,in vitro complex I activity relative to solvent control,C. briggsae complex I; 0.0005 µM,94.520% and 94.808%
same,in vitro complex I activity relative to solvent control,C. briggsae complex I; 0.001 µM,101.737% and 104.812%
same,in vitro complex I activity relative to solvent control,C. briggsae complex I; 0.0025 µM,116.836% and 120.629%
same,in vitro complex I activity relative to solvent control,C. briggsae complex I; 0.005 µM,106.999% and 118.433% and 130.348%
same,remaining activity at 0.013 µM,"C. briggsae complex I; 0.013 µM, Mean, read-out: in vitro complex I activity relative to solvent control",116%
same,in vitro complex I activity relative to solvent control,C. briggsae complex I; 0.013 µM,111.242% and 107.535% and 130.182%
same,in vitro complex I activity relative to solvent control,C. briggsae complex I; 0.025 µM,103.091% and 100.391% and 122.835%
same,in vitro complex I activity relative to solvent control,C. briggsae complex I; 0.313 µM,88.072% and 92.566%
same,in vitro complex I activity relative to solvent control,C. briggsae complex I; 0.625 µM,71.194% and 69.504%
same,in vitro complex I activity relative to solvent control,C. briggsae complex I; 1.5 µM,60.471% and 52.885%
same,in vitro complex I activity relative to solvent control,C. briggsae complex I; 3 µM,43.881% and 32.774%
same,in vitro complex I activity relative to solvent control,C. briggsae complex I; 7.5 µM,36.822% and 17.413% and 21.038%
same,in vitro complex I activity relative to solvent control,C. briggsae complex I; 15 µM,25.255% and 14.163% and 8.486%
same,in vitro complex I activity relative to solvent control,C. briggsae complex I; 37.5 µM,22.112% and 7.770% and 5.213%
same,in vitro complex I activity relative to solvent control,C. briggsae complex I; 75 µM,17.813% and 9.208% and 0.615%
same,in vitro complex I activity relative to solvent control,P. pacificus complex I; 0.0001 µM,88.002% and 87.975%
same,in vitro complex I activity relative to solvent control,P. pacificus complex I; 0.0005 µM,84.586% and 99.738%
same,in vitro complex I activity relative to solvent control,P. pacificus complex I; 0.001 µM,88.144% and 118.724% and 128.438%
same,in vitro complex I activity relative to solvent control,P. pacificus complex I; 0.0025 µM,91.851% and 121.800% and 114.985%
same,in vitro complex I activity relative to solvent control,P. pacificus complex I; 0.005 µM,88.090% and 129.528% and 134.644%
same,in vitro complex I activity relative to solvent control,P. pacificus complex I; 0.013 µM,75.261% and 114.147% and 126.153%
same,in vitro complex I activity relative to solvent control,P. pacificus complex I; 0.025 µM,93.189% and 109.711% and 118.899%
same,in vitro complex I activity relative to solvent control,P. pacificus complex I; 0.313 µM,84.029% and 90.800%
same,in vitro complex I activity relative to solvent control,P. pacificus complex I; 0.625 µM,90.077% and 71.350% and 65.156%
same,in vitro complex I activity relative to solvent control,P. pacificus complex I; 1.5 µM,77.861% and 69.113% and 57.365%
same,in vitro complex I activity relative to solvent control,P. pacificus complex I; 3 µM,55.217% and 59.547% and 32.622%
same,in vitro complex I activity relative to solvent control,P. pacificus complex I; 7.5 µM,35.946% and 21.621%
same,in vitro complex I activity relative to solvent control,P. pacificus complex I; 15 µM,20.646% and 38.121% and 5.573%
same,in vitro complex I activity relative to solvent control,P. pacificus complex I; 37.5 µM,7.989% and 34.972% and 5.846%
same,in vitro complex I activity relative to solvent control,P. pacificus complex I; 75 µM,8.992% and 21.695% and 3.235%
same,Relative Motility,"L1 wild-type C. elegans; 50 μM compound, worm motility 3 hours after removal of KCN, relative to DMSO controls, single biological replicate",0.046
same,"KCN survival assay value relative to DMSO control, Mean",L1 wild-type C. elegans; dose 0.2 µM,1.038
same,"KCN survival assay value relative to DMSO control, Mean",L1 wild-type C. elegans; dose 0.4 µM,1.025
same,"KCN survival assay value relative to DMSO control, Mean",L1 wild-type C. elegans; dose 0.8 µM,0.981
same,"KCN survival assay value relative to DMSO control, Mean",L1 wild-type C. elegans; dose 1.6 µM,1.047
same,"KCN survival assay value relative to DMSO control, Mean",L1 wild-type C. elegans; dose 3.1 µM,1.037
same,"KCN survival assay value relative to DMSO control, Mean",L1 wild-type C. elegans; dose 6.3 µM,1.001
same,"KCN survival assay value relative to DMSO control, Mean",L1 wild-type C. elegans; dose 12.5 µM,0.717
same,"KCN survival assay value relative to DMSO control, Mean",L1 wild-type C. elegans; dose 25 µM,0.059
same,"KCN survival assay value relative to DMSO control, Mean",L1 wild-type C. elegans; dose 50 µM,0.046
same,"KCN survival assay value relative to DMSO control, Mean",L1 wild-type C. elegans; dose 100 µM,0.020

# — PMC11079024, “Identification of a family of species-selective complex I inhibitors as potential anthelmintics” (Nature Communications, 2024)
